Measurements published in article PMC6009982, “Diaryl ethers with carboxymethoxyphenacyl motif as potent HIV-1 reverse transcriptase inhibitors with improved solubility” (Journal of Enzyme Inhibition and Medicinal Chemistry, 2017).

Key:
[1] = Aqueous solubility by weighing dried aliquots; assay type: physicochemical; conditions: tested form: K salt; for Solubility: ultrapure deionised water, room temperature, pH =7
[2] = tested on: SupT1 cells; test: Cytotoxicity from cell numbers in non-infected SupT1 cultures; assay type: cell-based; conditions: tested form: K salt; for Threshold toxicity: concentration at which toxicity is observed in 10-fold titration series
[3] = tested on: CD4+ T cells; test: Cytotoxicity from cell numbers in CD4+ T cells; assay type: cell-based; conditions: primary CD4+ T cells; tested form: K salt

SMILES	Solubility [1] [mg/mL]	Threshold toxicity [2] [µM]	Solubility relative to RPV ([1]; water, times greater than that of RPV)	Concentration above which toxicity was apparent [2]	Concentration above which toxicity was apparent [3]
N#Cc1cc(Cl)cc(Oc2ccc(Cl)cc2OCC(=O)c2ccc(Oc3ccc(OCC(=O)O)cc3)cc2)c1	>50.0	50	–	–	–
N#Cc1cc(Cl)cc(Oc2cc(Cl)ccc2OCC(=O)c2ccc(OCC(=O)O)cc2)c1	–	5	–	–	–
N#Cc1cc(Cl)cc(Oc2cc(OCC(=O)c3ccc(Oc4ccc(OCC(=O)O)cc4)cc3)ccc2Cl)c1	3.2	50	ca. 100,000 times	above 20 µM	above 20 µM
